## Apparent affinities of Ab-14 variants for a coronavirus HR2 peptide

From the AlphaSeq antibody data of Li et al. 2023 (doi:10.1038/s41467-023-39022-2), copy in the FLAb collection.

The target is the same throughout: PDVDLGDISGINAS, from the HR2 region of SARS-CoV-2 spike.

Parent scFv Ab-14: VH joined to VL by the linker GGGGSGGGGSGGGGS. Changes lie in the light chain CDRs alone.
VH: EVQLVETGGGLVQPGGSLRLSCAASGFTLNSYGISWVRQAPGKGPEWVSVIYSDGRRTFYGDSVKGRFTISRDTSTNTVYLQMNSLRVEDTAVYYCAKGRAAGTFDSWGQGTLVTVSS
VL: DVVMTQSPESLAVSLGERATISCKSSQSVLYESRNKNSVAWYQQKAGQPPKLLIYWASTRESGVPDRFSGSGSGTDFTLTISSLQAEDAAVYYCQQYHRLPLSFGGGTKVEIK

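The starting antibody came from a phage panning campaign against this peptide. Designed CDR sequences, proposed from the first random library and measured here. Their group label is 14L_GPLM_HC (GPLM: also part of the Gaussian process libraries; HC: hill climbing; a sequence that several methods proposed may carry one label only). In AlphaSeq, yeast of one mating type display the scFv and yeast of the other type display the target. After mating in shaken culture at 30 °C for 16 h, diploids were selected and their barcode pairs sequenced. Each replicate has its own calibration line, from reference interactions of the BCL2 family. There are six technical replicates.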

Changes read parent residue, position, new residue, counted from the first residue of the VL shown.
Scale: log10 of Kd in nM, estimated from mating counts; low values are strong binders.
Values of this round are not directly comparable with the first-round values of the same sequences.
Background: pairings of all light chain designs with three empty control strains gave a value in 4% of cases (median 2.64, 5th percentile 1.59). Values in that range, when seen in few replicates, are hard to tell from nonspecific mating. Also given: how often the same scFv was detected with the empty control strains.
In the paper, a design with two or fewer of six values counts as a poor binder.

Variant R34G+W56N gave 0.59, 0.63, 0.24, 0.24, 0.18, 0.43 (controls 0 of 18).
Variant S25H+W56D gave -0.13, -0.25, -0.21, -0.31, -0.36, -0.08 (controls 2 of 18).
Variant S25F+R34G+N35T+W56N gave -0.25, -0.29, -0.20, -0.26, -0.42, -0.51 (controls 1 of 18).
Variant S25F+N35D+W56N gave 0.05, -0.12, 0.25, -0.33, -0.22, -0.28 (controls 0 of 18).
Variant S25F+Y31F+W56D gave -0.28, -0.44, -0.56, -0.33, -0.26, -0.40 (controls 0 of 18).
Variant S25L+V29Y+W56E gave 0.12, 0.37, -0.20, 0.22, 0.04, 0.40 (controls 1 of 18).
Variant S26G+S28G+N37D+W56G gave -0.38, -0.43, -0.39, -0.52, -0.46, -0.20 (controls 0 of 18).
Variant W56H+S62D+H98G gave 0.05, -0.10, -0.02, -0.21, -0.03, 0.06 (controls 0 of 18).
Variant S26G+S28G+K36Q+W56G gave 0.47, 0.23, 0.17, 0.19, 0.20, 0.39 (controls 0 of 18).
Variant S26G+S28G+W56E gave -0.02, 0.24, -0.01, 0.20, 0.11, 0.08 (controls 1 of 18).
Variant V29Y+W56G gave 0.39, 0.41, 0.31, 0.33, 0.25, 0.35 (controls 2 of 18).
Variant K24I+S25F+N35T+W56N gave 0.09, 0.04, 0.03, -0.48, 0.00, 0.21 (controls 0 of 18).
Variant S26G+S28G+N37Q+W56G gave 0.55, 0.55, 0.29, 0.37, 0.43, 0.43 (controls 0 of 18).
Variant S26G+Q27I+S28G+W56G gave -0.01, -0.26, -0.44, -0.41, -0.07, -0.43 (controls 2 of 18).
Variant S26G+Q27E+S28G+W56G gave -0.22, -0.17, -0.32, -0.28, -0.37, 0.01 (controls 0 of 18).
Variant V29F+W56G gave 0.14, 0.04, 0.06, 0.12, -0.11, 0.16 (controls 2 of 18).
Variant S26G+Q27M+S28G+W56G gave -0.06, -0.10, -0.24, -0.33, -0.06, -0.03 (controls 0 of 18).
Variant S25L+S26R+V29T+W56R gave 0.31, 0.17, 0.37, 0.09, 0.64, 0.42 (controls 2 of 18).
Variant V29Y+W56E gave -0.16, -0.14, -0.09, -0.32, -0.33, -0.10 (controls 1 of 18).
Variant S25F+R34V+W56D gave -0.08, -0.07, -0.26, -0.09, -0.17, -0.05 (controls 1 of 18).
Variant S25V+S26R+V29T+W56G gave -0.36, -0.35, -0.30, -0.55, -0.47, -0.22 (controls 1 of 18).
Variant Q27P+V29Y+W56E gave 0.36, -0.04, -0.03, 0.03, -0.03, 0.29 (controls 1 of 18).
Variant S25A+Y31F+W56D gave 0.18, 0.16, 0.11, 0.13, 0.03, 0.23 (controls 2 of 18).
Variant Q27I+V29Y+R34G+W56E gave 0.40, 0.29, 0.38, 0.37, 0.20, 0.33 (controls 1 of 18).
Variant S26G+S28G+W56D gave 0.02, -0.07, 0.01, -0.05, 0.02, 0.00 (controls 1 of 18).
Variant S25T+S26G+S28G+W56G gave 0.24, 0.13, 0.10, 0.05, 0.05, 0.33 (controls 2 of 18).
Variant S26G+Q27A+S28G+W56G gave 0.33, 0.22, 0.18, 0.20, 0.24, 0.45 (controls 0 of 18).
Variant V29I+R34V+W56H gave 1.12, 0.80, 0.74, 0.66, 0.90, 0.78 (controls 2 of 18).
Variant S25Q+W56D+H98S gave 0.04, -0.39, -0.20, -0.26, -0.30, -0.48 (controls 1 of 18).
Variant S25Y+W56D gave 0.01, -0.23, -0.19, -0.35, -0.34, -0.20 (controls 4 of 18).
Variant K36S+W56D gave 0.35, 0.29, 0.20, 0.20, 0.19, 0.42 (controls 0 of 18).
Variant R34M+W56Q gave 1.02, 0.90, 1.13, 1.06, 0.78, 1.08 (controls 0 of 18).
Variant S25F+R34T+N35T+W56N gave 0.97, 0.21, 0.26, 0.11, 0.31, -0.11 (controls 0 of 18).

The closing 3 entries, repeated:

changes	log10 Kd (nM) by replicate	signal with controls
K36S+W56D	0.35, 0.29, 0.20, 0.20, 0.19, 0.42	0 of 18
R34M+W56Q	1.02, 0.90, 1.13, 1.06, 0.78, 1.08	0 of 18
S25F+R34T+N35T+W56N	0.97, 0.21, 0.26, 0.11, 0.31, -0.11	0 of 18